Source: paper PMC6912599 (European journal of medicinal chemistry, 2018)

Molecular target: T1, α1β3 GABAAR (Homo sapiens, UniProt P14867+P28472)
T1 sequence (P14867 28-456): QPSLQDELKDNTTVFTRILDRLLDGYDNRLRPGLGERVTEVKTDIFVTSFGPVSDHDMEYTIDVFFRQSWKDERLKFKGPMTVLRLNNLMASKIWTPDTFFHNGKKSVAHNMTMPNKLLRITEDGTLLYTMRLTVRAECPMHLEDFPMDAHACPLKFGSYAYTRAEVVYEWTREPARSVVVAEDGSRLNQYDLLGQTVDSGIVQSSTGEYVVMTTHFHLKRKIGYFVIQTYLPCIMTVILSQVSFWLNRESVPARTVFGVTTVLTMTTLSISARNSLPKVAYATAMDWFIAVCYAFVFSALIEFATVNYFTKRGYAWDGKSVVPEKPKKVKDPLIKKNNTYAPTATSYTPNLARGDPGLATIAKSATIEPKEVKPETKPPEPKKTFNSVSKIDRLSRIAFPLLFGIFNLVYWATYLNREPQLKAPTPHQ
T1 sequence (P28472 26-473): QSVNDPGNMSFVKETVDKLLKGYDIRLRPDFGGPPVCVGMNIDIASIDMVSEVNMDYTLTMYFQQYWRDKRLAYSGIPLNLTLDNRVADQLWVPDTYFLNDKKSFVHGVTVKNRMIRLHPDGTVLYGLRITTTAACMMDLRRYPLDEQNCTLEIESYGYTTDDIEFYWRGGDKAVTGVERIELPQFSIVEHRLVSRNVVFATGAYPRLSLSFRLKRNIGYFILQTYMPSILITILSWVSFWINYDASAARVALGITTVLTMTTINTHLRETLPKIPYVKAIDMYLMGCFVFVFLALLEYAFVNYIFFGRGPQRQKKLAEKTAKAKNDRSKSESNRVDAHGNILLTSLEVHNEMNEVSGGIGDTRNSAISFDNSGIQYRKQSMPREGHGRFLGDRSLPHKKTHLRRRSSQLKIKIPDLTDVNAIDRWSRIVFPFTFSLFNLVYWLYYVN
Test: Inhibition of [3H]21-pTFDBzox-AP photolabeling of purified α1β3 GABAAR
Type: binding
Conditions: purified α1β3 receptor; β3 subunit incorporation; 300 μM GABA

## pregnenolone sulfate
  IC50 inhibition of photolabeling with [3H]21-pTFDBzox-AP: No effect
